Results on 1 molecule are retold here after ChEMBL document CHEMBL1123773, “The role of solvent-accessible surface area in determining partition coefficients” (J Med Chem, 1987).

The conditions of series [1]: octanol/water.
The conditions of series [2]: octanol/water. The source holds these as a separate data set.
For series [3] the following is noted: octanol/water. This is another data set of the same source.

Take `Nc1ccc(C(=O)O)cc1` [AMINOBENZOIC ACID]: the logP in series [1] is recorded as -1.52; in series [2], 0.88; in series [3], -3.74.
